# Test results as given in US20120045393A1 (priority 2009, published 2012).
# Tested on: LHRH binding sites on human ovarian cancer cells (EFO-27)
# Details: not given
# 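Further: Cell-associated radioactivity on confluent EFO-27 monolayers in 96-well plates, measured by microplate scintillation counting.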
row,SMILES,EC50 [µM]
1,N=C(N)NCCC[C@H](NC(=O)[C@@H](Cc1ccc2ccccc2c1)NC(=O)CN1CCN(CC(=O)O)CCN(CC(=O)O)CCN(CC(=O)O)CC1)C(=O)N[C@@H](Cc1ccc2ccccc2c1)C(=O)N[C@@H](CO)C(=O)N[C@@H](Cc1c[nH]cn1)C(=O)N[C@H](CCCNC(=N)N)C(=O)N[C@@H](Cc1c[nH]c2ccccc12)C(=O)N[C@@H](Cc1ccc(C(=O)c2ccccc2)cc1)C(=O)N1CCC[C@H]1C(=O)NNC(N)=O [compound 3105],0.22
2,N=C(N)NCCC[C@H](NC(=O)[C@@H](Cc1ccc2ccccc2c1)NC(=O)[C@H](CN)NC(=O)CN1CCN(CC(=O)O)CCN(CC(=O)O)CCN(CC(=O)O)CC1)C(=O)N[C@@H](Cc1c[nH]c2ccccc12)C(=O)N[C@@H](CO)C(=O)N[C@@H](Cc1c[nH]cn1)C(=O)N[C@H](CCCNC(=N)N)C(=O)N[C@@H](Cc1c[nH]c2ccccc12)C(=O)N[C@@H](Cc1ccc(C(=O)c2ccccc2)cc1)C(=O)N1CCC[C@H]1C(=O)NNC(N)=O [compound 3096],0.37
3,N=C(N)NCCC[C@H](NC(=O)[C@@H](Cc1ccc2ccccc2c1)NC(=O)CN1CCN(CC(=O)O)CCN(CC(=O)O)CCN(CC(=O)O)CC1)C(=O)N[C@@H](Cc1c[nH]c2ccccc12)C(=O)N[C@@H](CO)C(=O)N[C@@H](CCCN)C(=O)N[C@H](CCCNC(=N)N)C(=O)N[C@@H](Cc1c[nH]c2ccccc12)C(=O)N[C@@H](Cc1ccc(C(=O)c2ccccc2)cc1)C(=O)N1CCC[C@H]1C(=O)NNC(N)=O [compound 2961],0.35
4,N=C(N)NCCC[C@H](NC(=O)[C@@H](Cc1ccc2ccccc2c1)NC(=O)c1ccc(NC(=O)CNC(=O)CN2CCN(CC(=O)O)CCN(CC(=O)O)CCN(CC(=O)O)CC2)cc1)C(=O)N[C@@H](Cc1c[nH]c2ccccc12)C(=O)N[C@@H](CO)C(=O)N[C@@H](Cc1c[nH]cn1)C(=O)N[C@H](CCCNC(=N)N)C(=O)N[C@@H](Cc1c[nH]c2ccccc12)C(=O)N[C@@H](Cc1ccc(C(=O)c2ccccc2)cc1)C(=O)N1CCC[C@H]1C(=O)NNC(N)=O [compound 3002],0.5
5,N=C(N)NCCC[C@H](NC(=O)[C@@H](Cc1ccc2ccccc2c1)NC(=O)CN1CCN(CC(=O)O)CCN(CC(=O)O)CCN(CC(=O)O)CC1)C(=O)N[C@@H](Cc1c[nH]c2ccccc12)C(=O)N[C@@H](Cc1ccc(CN)cc1)C(=O)N[C@@H](Cc1c[nH]cn1)C(=O)N[C@H](CCCNC(=N)N)C(=O)N[C@@H](Cc1c[nH]c2ccccc12)C(=O)N[C@@H](Cc1ccc(C(=O)c2ccccc2)cc1)C(=O)N1CCC[C@H]1C(=O)NNC(N)=O [compound 3115],0.15
6,N=C(N)NCCC[C@H](NC(=O)[C@H](CO)NC(=O)[C@H](Cc1c[nH]c2ccccc12)NC(=O)[C@H](CCCNC(=N)N)NC(=O)[C@@H](Cc1ccc2ccccc2c1)NC(=O)CN1CCN(CC(=O)O)CCN(CC(=O)O)CCN(CC(=O)O)CC1)C(=O)N[C@H](CCCNC(=N)N)C(=O)N[C@@H](Cc1c[nH]c2ccccc12)C(=O)N[C@@H](Cc1ccc(C(=O)c2ccccc2)cc1)C(=O)N1CCC[C@H]1C(=O)NNC(N)=O [compound 2959],0.25
7,N=C(N)NCCC[C@H](NC(=O)[C@H](CCCNC(=N)N)NC(=O)[C@@H](Cc1ccc2ccccc2c1)NC(=O)CN1CCN(CC(=O)O)CCN(CC(=O)O)CCN(CC(=O)O)CC1)C(=O)N[C@@H](CO)C(=O)N[C@@H](Cc1c[nH]cn1)C(=O)N[C@H](CCCNC(=N)N)C(=O)N[C@@H](Cc1c[nH]c2ccccc12)C(=O)N[C@@H](Cc1ccc(C(=O)c2ccccc2)cc1)C(=O)N1CCC[C@H]1C(=O)NNC(N)=O [compound 3111],0.25
8,N=C(N)NCCC[C@H](NC(=O)[C@@H](Cc1ccc2ccccc2c1)NC(=O)CN1CCN(CC(=O)O)CCN(CC(=O)O)CCN(CC(=O)O)CC1)C(=O)N[C@@H](Cc1c[nH]c2ccccc12)C(=O)N[C@@H](CC(N)=O)C(=O)N[C@@H](Cc1c[nH]cn1)C(=O)N[C@H](CCCNC(=N)N)C(=O)N[C@@H](Cc1c[nH]c2ccccc12)C(=O)N[C@@H](Cc1ccc(C(=O)c2ccccc2)cc1)C(=O)N1CCC[C@H]1C(=O)NNC(N)=O [compound 2956],0.28

# Further lines, results first:
row,EC50 [µM],SMILES
1,0.28,N=C(N)NCCC[C@H](NC(=O)[C@H](Cc1ccc(-c2ccccc2)cc1)NC(=O)CN1CCN(CC(=O)O)CCN(CC(=O)O)CCN(CC(=O)O)CC1)C(=O)N[C@@H](Cc1c[nH]c2ccccc12)C(=O)N[C@@H](CO)C(=O)N[C@@H](Cc1c[nH]cn1)C(=O)N[C@H](CCCNC(=N)N)C(=O)N[C@@H](Cc1c[nH]c2ccccc12)C(=O)N[C@@H](Cc1ccc(C(=O)c2ccccc2)cc1)C(=O)N1CCC[C@H]1C(=O)NNC(N)=O [BRU-3070]
2,0.28,N=C(N)NCCC[C@H](NC(=O)[C@@H](Cc1ccc2ccccc2c1)NC(=O)c1ccc(CNC(=O)CN2CCN(CC(=O)O)CCN(CC(=O)O)CCN(CC(=O)O)CC2)cc1)C(=O)N[C@@H](Cc1c[nH]c2ccccc12)C(=O)N[C@@H](CO)C(=O)N[C@@H](Cc1c[nH]cn1)C(=O)N[C@H](CCCNC(=N)N)C(=O)N[C@@H](Cc1c[nH]c2ccccc12)C(=O)N[C@@H](Cc1ccc(C(=O)c2ccccc2)cc1)C(=O)N1CCC[C@H]1C(=O)NNC(N)=O [BRU-2963]
3,0.15,CN[C@@H](Cc1ccccc1)C(=O)N[C@@H](Cc1c[nH]cn1)C(=O)N[C@@H](Cc1c[nH]c2ccccc12)C(=O)N[C@@H](CO)C(=O)N[C@@H](Cc1c[nH]cn1)C(=O)N[C@H](CCCNC(=N)N)C(=O)N[C@@H](Cc1c[nH]c2ccccc12)C(=O)N[C@@H](Cc1ccc(C(=O)c2ccccc2)cc1)C(=O)N1CCC[C@H]1C(=O)NNC(N)=O [BRU-2734]
4,0.26,N=C(N)NCCC[C@@H](NC(=O)[C@H](Cc1c[nH]cn1)NC(=O)[C@H](CO)NC(=O)[C@H](Cc1c[nH]c2ccccc12)NC(=O)[C@H](Cc1ccc(NC(=N)N)cc1)NC(=O)[C@@H](Cc1ccc2ccccc2c1)NC(=O)CN1CCN(CC(=O)O)CCN(CC(=O)O)CCN(CC(=O)O)CC1)C(=O)N[C@@H](Cc1c[nH]c2ccccc12)C(=O)N[C@@H](Cc1ccc(C(=O)c2ccccc2)cc1)C(=O)N1CCC[C@H]1C(=O)NNC(N)=O [BRU-3058]
5,0.44,N=C(N)NCCC[C@H](NC(=O)[C@H](CNC(=O)CN1CCN(CC(=O)O)CCN(CC(=O)O)CCN(CC(=O)O)CC1)NS(=O)(=O)c1ccccc1)C(=O)N[C@@H](Cc1c[nH]c2ccccc12)C(=O)N[C@@H](CO)C(=O)N[C@@H](Cc1c[nH]cn1)C(=O)N[C@H](CCCNC(=N)N)C(=O)N[C@@H](Cc1c[nH]c2ccccc12)C(=O)N[C@@H](Cc1ccc(C(=O)c2ccccc2)cc1)C(=O)N1CCC[C@H]1C(=O)NNC(N)=O [BRU-3056]
6,0.42,N=C(N)NCCC[C@@H](NC(=O)[C@H](Cc1c[nH]cn1)NC(=O)[C@H](CO)NC(=O)[C@H](Cc1c[nH]c2ccccc12)NC(=O)[C@H](Cc1c[nH]cn1)NC(=O)[C@@H]1CCC(=O)N1)C(=O)N[C@@H](Cc1c[nH]c2ccccc12)C(=O)N[C@@H](Cc1ccc(C(=O)c2ccccc2)cc1)C(=O)N1CCC[C@H]1C(=O)NNC(N)=O [BRU-2822]

# Same assay, conditions: Table 5: modifications of amino acids at positions 1 and 2; in vitro binding on EFO-27 cells
row,SMILES,EC50 [µM]
1,N=C(N)NCCC[C@H](NC(=O)[C@@H]1Cc2c([nH]c3ccccc23)CN1C(=O)CNC(=O)CN1CCN(CC(=O)O)CCN(CC(=O)O)CCN(CC(=O)O)CC1)C(=O)N[C@@H](Cc1c[nH]c2ccccc12)C(=O)N[C@@H](CO)C(=O)N[C@@H](Cc1c[nH]cn1)C(=O)N[C@H](CCCNC(=N)N)C(=O)N[C@@H](Cc1c[nH]c2ccccc12)C(=O)N[C@@H](Cc1ccc(C(=O)c2ccccc2)cc1)C(=O)N1CCC[C@H]1C(=O)NNC(N)=O [BRU-3053],0.32
2,N=C(N)NCCC[C@H](NC(=O)[C@@H](Cc1ccc(O)cc1)NC(=O)CN1CCN(CC(=O)O)CCN(CC(=O)O)CCN(CC(=O)O)CC1)C(=O)N[C@@H](Cc1c[nH]c2ccccc12)C(=O)N[C@@H](CO)C(=O)N[C@@H](Cc1c[nH]cn1)C(=O)N[C@H](CCCNC(=N)N)C(=O)N[C@@H](Cc1c[nH]c2ccccc12)C(=O)N[C@@H](Cc1ccc(C(=O)c2ccccc2)cc1)C(=O)N1CCC[C@H]1C(=O)NNC(N)=O [BRU-3054],0.43
3,N=C(N)NCCC[C@@H](NC(=O)[C@H](Cc1c[nH]cn1)NC(=O)[C@H](CO)NC(=O)[C@H](Cc1c[nH]c2ccccc12)NC(=O)[C@@H](CCCNC(=N)N)NC(=O)[C@@H](Cc1ccc2ccccc2c1)NC(=O)CN1CCN(CC(=O)O)CCN(CC(=O)O)CCN(CC(=O)O)CC1)C(=O)N[C@@H](Cc1c[nH]c2ccccc12)C(=O)N[C@@H](Cc1ccc(C(=O)c2ccccc2)cc1)C(=O)N1CCC[C@H]1C(=O)NNC(N)=O [BRU-3049],0.36

# Same assay, conditions: Table 13: linker between AA1 and DO3A10CM; EFO-27 cells
row,SMILES,EC50 [µM]
1,N=C(N)NCCC[C@H](NC(=O)[C@@H](Cc1ccc2ccccc2c1)NC(=O)[C@@H](CCCCN)NC(=O)CN1CCN(CC(=O)O)CCN(CC(=O)O)CCN(CC(=O)O)CC1)C(=O)N[C@@H](Cc1c[nH]c2ccccc12)C(=O)N[C@@H](CO)C(=O)N[C@@H](Cc1c[nH]cn1)C(=O)N[C@H](CCCNC(=N)N)C(=O)N[C@@H](Cc1c[nH]c2ccccc12)C(=O)N[C@@H](Cc1ccc(C(=O)c2ccccc2)cc1)C(=O)N1CCC[C@H]1C(=O)NNC(N)=O [compound 3099],0.44

# Same assay, conditions: read-out: EC50 μM; Underivatized LHRH peptides and LHRH peptides with chelator on N-terminus; EFO-27 cells
row,SMILES,EC50 [µM]
1,N=C(N)NCCC[C@H](NC(=O)[C@H](Cc1c[nH]cn1)NC(=O)[C@H](CO)NC(=O)[C@H](Cc1c[nH]c2ccccc12)NC(=O)[C@H](CCCNC(=N)N)NC(=O)[C@@H](Cc1ccc2ccccc2c1)NC(=O)CN1CCN(CC(=O)O)CCN(CC(=O)O)CCN(CC(=O)O)CC1)C(=O)N[C@@H](Cc1c[nH]c2ccccc12)C(=O)N[C@@H](Cc1ccc(C(=O)c2ccccc2)cc1)C(=O)N1CCC[C@H]1C(=O)NNC(N)=O [BRU-3031],0.31
2,N=C(N)NCCC[C@H](NC(=O)[C@H](Cc1c[nH]cn1)NC(=O)CN1CCN(CC(=O)O)CCN(CC(=O)O)CCN(CC(=O)O)CC1)C(=O)N[C@@H](Cc1c[nH]c2ccccc12)C(=O)N[C@@H](CO)C(=O)N[C@@H](Cc1c[nH]cn1)C(=O)N[C@H](CCCNC(=N)N)C(=O)N[C@@H](Cc1c[nH]c2ccccc12)C(=O)N[C@@H](Cc1ccc(C(=O)c2ccccc2)cc1)C(=O)N1CCC[C@H]1C(=O)NNC(N)=O [BRU-3025],0.47
3,N=C(N)NCCC[C@H](NC(=O)[C@@H](Cc1ccc2ccccc2c1)NC(=O)CNC(=O)CN1CCN(CC(=O)O)CCN(CC(=O)O)CCN(CC(=O)O)CC1)C(=O)N[C@@H](Cc1c[nH]c2ccccc12)C(=O)N[C@@H](CO)C(=O)N[C@@H](Cc1c[nH]cn1)C(=O)N[C@H](CCCNC(=N)N)C(=O)N[C@@H](Cc1c[nH]c2ccccc12)C(=O)N[C@@H](Cc1ccc(C(=O)c2ccccc2)cc1)C(=O)N1CCC[C@H]1C(=O)NNC(N)=O [BRU-2962],0.47
